Test results from paper PMC4192486.

System: P02766
Experiment: aggregation followed by turbidity at 330 nm; 3.5 μM full-length TTR, quiescent, 200 mM sodium acetate, 100 mM KCl, pH 4.4, 37 °C, 72 h; without or with 35 μM heparin; also TEM
Settings: other: aggregation followed by turbidity at 330 nm

Q: K35L-TTR mutant was tested. Which extent of aggregation (turbidity at 330 nm) against WT-TTR did it give?
A: > 2 fold
